Target: T1, rat GLP-1 receptor (Rattus norvegicus, UniProt P32301)
T1 construct: expressed in transfected cells; host or cells: Dihydrofolate reductase-deficient Chinese hamster ovary cell line DXB-11; membrane preparation
T1 sequence (P32301 22-463): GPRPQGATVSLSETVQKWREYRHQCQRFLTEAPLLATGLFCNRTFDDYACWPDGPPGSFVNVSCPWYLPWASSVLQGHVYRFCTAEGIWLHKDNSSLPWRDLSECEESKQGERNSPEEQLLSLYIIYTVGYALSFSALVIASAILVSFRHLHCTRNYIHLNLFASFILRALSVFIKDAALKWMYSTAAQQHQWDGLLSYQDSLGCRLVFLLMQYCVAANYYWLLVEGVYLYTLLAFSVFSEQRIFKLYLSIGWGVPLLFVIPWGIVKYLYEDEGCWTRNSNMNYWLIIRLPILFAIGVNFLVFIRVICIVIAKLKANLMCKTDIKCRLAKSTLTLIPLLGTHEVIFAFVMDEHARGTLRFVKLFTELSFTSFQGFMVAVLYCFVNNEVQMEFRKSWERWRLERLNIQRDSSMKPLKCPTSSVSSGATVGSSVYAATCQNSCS
Experiment: In vitro GLP-1 agonist cAMP assay (particle concentration fluorescence immunoassay, membrane preparation)
Type: biochemical
Excerpt: In vitro GLP-1 Agonist cAMP Assay
The published DNA sequence for the rat GLP-1 receptor (Thorens B., et. al. Proc. Natl. Acad. Sci. U.S.A. 89:8641-8645 (1992) and the dihydrofolate reductase resistance marker gene were used in conjunction with Polymerase Chain Reaction (PCR) techniques to construct an expression vector. The dihydrofolate reductase-deficient mutant Chinese hamster ovary cell line (DXB-11) was transformed with the vector resulting in a recombinant Chinese hamster ovary cell line that expressed the rat GLP-1 membrane receptor.
Cells were grown to confluency in 10% dialyzed fetal bovine serum/high glucose Dulbecco's Modified Eagle Medium with 0.1% proline at 37° C. The cell were then harvested, and membranes were prepared by first washing the cells with phosphate buffered saline (PBS), then twice with cold buffer (25 mM 4-(2-hydroxyethyl)-1 piperazineethanesulfonic acid (HEPES), 2 mM MgCl2, 1 mM ethylenedinitrilo-tetraacetic acid (EDTA), 20 μg/ml Leupeptin, 1 mM phenylmethyl sulfonyl fluoride (PMSF), 2 μg/ml Aprotinin, 50 μg/ml Trypsin Inhibitor, pH 8.0). The washed cells were resuspended in cold buffer, lysed in a glass Teflon homogenizer and then centrifuged at 35,300 g for 30 minutes at 4° C. The supernatant was removed and the pellet resuspended in cold buffer and homogenized. Two hundred μl aliquots (3.2 mg/ml) were stored at -80° C.
Briefly, 10 μl of membrane prep (80 μg/ml) was preincubated with 10 μl of test compound or reference compound in buffer (25 mM HEPES, 0.2% (w/v) bovine serum albumin (BSA), pH 7.6) at 32° C. for 10 minutes. Five μl of reaction buffer (25 mM HEPES, 0.2% (w/v) BSA, 13 mM (CH3 C00)2 Mg.4H2 O, 4 mM adenosine-5'-triphosphate (ATP), 40 nM guanosine 5'-O-3'thiotriphosphate (GTP-∂-s), 25 mM creatine phosphate, creatine kinase 250 U/ml, 1 mM 3-Isobutyl-1-methyl xanthine (IBMX), pH 7.6) was added and incubated for an additional 30 minutes. Incubations were stopped by adding 25 μl 10 mM EDTA and fluorescent tracer (cAMP-β phycoerythrin conjugate).
This assay, a particle concentration fluorescence immunoassay, was based on the competition between unlabelled cAMP and a fixed amount of fluorescent labelled cAMP for a limited number of binding sites on a cAMP specific antibody. By keeping the quantity of fluorescent ligand and antibody fixed, the amount of fluorescent ligand bound by the antibody was inversely proportional to the concentration of unlabelled cAMP. The antibody-bound cAMP was then captured by anti-rabbit IgG coated assay particles. Separation of the bound antibody fraction was achieved by filtration on Fluoricon®-Ca Assay Plates. After measuring the fluorescence in the pellet, the amount of bound fluorescent cAMP was calculated. The rate of cAMP production (pmol/min/mg) was then determined by interpolation from a standard curve.

GLP-1(7-37)OH [reference compound]
cAMP produced (Dose 0.005 nM): 25.481 pmol/min/mg
cAMP produced (Dose 0.01 nM): 28.494 pmol/min/mg
cAMP produced (Dose 0.02 nM): 30.453 pmol/min/mg
cAMP produced (Dose 0.05 nM): 30.453 pmol/min/mg
cAMP produced (Dose 0.1 nM): 42.567 pmol/min/mg
cAMP produced (Dose 0.4 nM): 59.037 pmol/min/mg
cAMP produced (Dose 1 nM): 68.697 pmol/min/mg
cAMP produced (Dose 4 nM): 70.282 pmol/min/mg
cAMP produced (Dose 10 nM): 67.494 pmol/min/mg
cAMP produced (Dose 100 nM): 65.665 pmol/min/mg
stimulation of cAMP production (fluorescent intensity) (result in words): increased cAMP concentration

Source: patent US5574008A, “Biologically active fragments of glucagon-like insulinotropic peptide” (Eli Lilly and Company, priority 1994, dated 1996)
